One substance from PMC3758425 (Biochemistry, 2013) can be followed below.

pKd: −log10 of the molar value.

The target in the assay is Human calmodulin (CaM) (human) (UniProt P0DP23). The assay can be described thus: NMR titration.

For the substance “N-terminally acetylated, full-length α-synuclein (from UniProt P37840 1-140) (natural protein)”, the pKd is 4.15.
